The chains behind the UniProt entries cited, without tags or fusion partners. Residues count along the entry.
UniProt O00187, 297-444: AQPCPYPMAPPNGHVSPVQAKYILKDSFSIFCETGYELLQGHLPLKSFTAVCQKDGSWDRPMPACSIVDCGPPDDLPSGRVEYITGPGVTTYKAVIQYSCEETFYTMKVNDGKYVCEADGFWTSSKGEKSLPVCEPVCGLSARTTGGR
UniProt O00187, 445-686: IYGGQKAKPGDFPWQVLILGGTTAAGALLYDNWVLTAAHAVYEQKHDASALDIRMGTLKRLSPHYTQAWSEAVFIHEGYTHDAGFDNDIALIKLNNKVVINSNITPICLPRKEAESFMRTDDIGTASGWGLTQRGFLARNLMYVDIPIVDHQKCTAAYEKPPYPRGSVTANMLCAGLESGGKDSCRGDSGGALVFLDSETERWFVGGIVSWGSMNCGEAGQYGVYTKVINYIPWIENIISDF
UniProt Q9JJS8, 444-685: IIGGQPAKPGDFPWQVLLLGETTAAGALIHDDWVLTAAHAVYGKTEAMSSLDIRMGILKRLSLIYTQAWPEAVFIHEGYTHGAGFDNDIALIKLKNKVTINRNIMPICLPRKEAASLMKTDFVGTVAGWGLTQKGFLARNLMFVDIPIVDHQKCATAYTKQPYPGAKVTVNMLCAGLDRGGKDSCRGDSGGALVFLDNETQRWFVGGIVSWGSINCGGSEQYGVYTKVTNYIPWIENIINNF
UniProt Q9JJS8, 296-443: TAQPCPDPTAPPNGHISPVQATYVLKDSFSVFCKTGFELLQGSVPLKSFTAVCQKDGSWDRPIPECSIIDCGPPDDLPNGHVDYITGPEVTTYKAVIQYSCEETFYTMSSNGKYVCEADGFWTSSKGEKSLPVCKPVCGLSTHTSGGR

According to patent US11667675B2, “MASP inhibitory compounds and uses thereof” (Bayer Aktiengesellschaft, priority 2019, dated 2023):

How the values were obtained:
human MASP1 = target: T1, human MASP1 (Homo sapiens, UniProt P48740); assay: Biochemical human MASP1 assay (FRET substrate); conditions: average IC50
T1 construct: Ig-kappa secretion signal (N, cleaved yes); made in house; host or cells: HEK293 (ATCC No. CRL-1573)
T1 sequence (P48740 297-448): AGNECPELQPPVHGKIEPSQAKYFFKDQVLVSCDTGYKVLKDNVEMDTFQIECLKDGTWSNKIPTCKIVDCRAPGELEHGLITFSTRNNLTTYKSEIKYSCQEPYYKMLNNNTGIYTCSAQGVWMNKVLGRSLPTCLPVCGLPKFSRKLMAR
T1 sequence (P48740 449-699): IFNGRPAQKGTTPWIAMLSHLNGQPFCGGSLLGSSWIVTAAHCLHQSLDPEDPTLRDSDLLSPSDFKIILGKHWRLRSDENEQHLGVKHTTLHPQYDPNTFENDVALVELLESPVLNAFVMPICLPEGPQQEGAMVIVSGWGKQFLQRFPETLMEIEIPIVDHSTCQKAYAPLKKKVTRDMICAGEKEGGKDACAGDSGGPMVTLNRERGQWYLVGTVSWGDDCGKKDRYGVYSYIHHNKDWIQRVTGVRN
Source text: (§1) 2.1 Recombinant Expression and Protein Production of Recombinant Human MASP1 and MASP2 Active Proteases.
(§2) The MASP1 or MASP2 expression vectors were transfected into the HEK293 (ATCC No. CRL-1573) cell line using Lipofectamine LTX® Reagent (Thermo-Fischer), as described by the manufacturer. […] The MASP1 and MASP2 proteins were purified from the conditioned media by affinity chromatography on Ni-NTA Superflow resin (Qiagen) as described by the manufacturer.
2.2 Biochemical Human MASP1 Assay
(§3) Recombinant human MASP1 enzyme produced in the HEK 293 cells was diluted in the reaction buffer (50 mM HEPES pH 8,0; 100 mM NaCl; 0.01% CHAPS; 0.5 mM Gluthathione) to the concentration of 20 nM and 25 μl was transferred into each single well of 384-well white microtiter plate (Greiner Bio One 781075). 1 μl of the inhibitor compound solution (dissolved in DMSO, at the corresponding concentration) or pure DMSO as a control was added to the same wells. […] The microtiter plate was incubated for 60-120 min at the temperature of 32 C. The increase of fluorescence intensity was measured in appropriate fluorescence plate reader (e.g. TECAN Ultra) using excitation wavelength of 320 nm and emission wavelength of 420 nm. IC50 values were calculated from percentage of inhibition of human MASP1 activity as a function of test compound concentration.

human MASP2 = target: T2, human MASP2 (Homo sapiens, UniProt O00187); assay: Biochemical human MASP2 assay (FRET substrate); conditions: average IC50
T2 construct: Ig-kappa secretion signal (N, cleaved yes); made in house; host or cells: HEK293 (ATCC No. CRL-1573)
Source text: as §1, §2
2.3 Biochemical Human MASP2 Assay
as §3, with “MASP2” for “MASP1”, “340” for “320”, “490” for “420”

rat MASP1 = target: T3, rat MASP1 (Rattus norvegicus, UniProt Q8CHN8); assay: Biochemical rat MASP1 assay (FRET substrate); conditions: average IC50; recombinant rat MASP1, FRET substrate
T3 construct: Ig-kappa secretion signal (N, cleaved yes); made in house; host or cells: HEK293 (ATCC No. CRL-1573)
T3 sequence (Q8CHN8 302-453 limits assumed): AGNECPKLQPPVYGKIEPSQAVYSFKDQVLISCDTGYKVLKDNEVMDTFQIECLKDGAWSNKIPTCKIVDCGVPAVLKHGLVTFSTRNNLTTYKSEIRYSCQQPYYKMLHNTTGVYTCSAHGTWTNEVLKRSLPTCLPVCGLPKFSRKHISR
T3 sequence (Q8CHN8 454-704 limits assumed): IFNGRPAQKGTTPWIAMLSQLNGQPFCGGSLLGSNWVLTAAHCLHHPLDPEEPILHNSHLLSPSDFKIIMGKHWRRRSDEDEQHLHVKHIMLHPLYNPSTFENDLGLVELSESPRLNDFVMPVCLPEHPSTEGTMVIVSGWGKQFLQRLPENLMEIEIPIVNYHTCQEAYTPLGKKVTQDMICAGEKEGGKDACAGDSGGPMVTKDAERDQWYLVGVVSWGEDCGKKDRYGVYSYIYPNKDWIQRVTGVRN
Source text: (§4) 4. Biochemical Rat MASP-1 and MASP-2 Assay
(§5) 4.1 Recombinant Expression and Protein Production of Recombinant Human and Rat MASP1 and MASP2 Active Proteases.
A truncated cDNA sequence of rat MASP1 encoding the fragment corresponding to the amino acids 302-704 with an C-terminal His Tag and N-terminal Ig-kappa secretion signal (SEQ ID No: 4) was subcloned into the mammalian expression vector pcDNA3.1 (Invitrogen).
(§6) The MASP1 or MASP2 expression vectors were transfected into the HEK293 (ATCC No. CRL-1573) cell line using Lipofectamine LTX® Reagent (Thermo-Fischer), as described by the manufacturer. The mature form of the recombinant rat MASP1 and MASP2 proteases were secreted into the culture medium. The MASP1 and MASP2 proteins were purified from the conditioned media by affinity chromatography on Ni-NTA Superflow resin (Qiagen) as described by the manufacturer.
4.2 Biochemical Rat MASP1 Assay.
Recombinant rat MASP1 enzyme produced in the HEK 293 cells was diluted in the reaction buffer (50 mM HEPES pH 8,0; 100 mM NaCl; 0.01% CHAPS; 0.5 mM Gluthathione) to the concentration of 4 nM and 25 μl was transferred into each single well of 384-well white microtiter plate (Greiner Bio One 781075). 1 μl of the inhibitor compound solution (dissolved in DMSO, at the corresponding concentration) or pure DMSO as a control was added to the same wells. The enzymatic reaction was initiated by addition of 25 μl of 40 μM solution of the FRET substrate Dabcyl-[…]-Glu(Edans)-NH2 (SEQ ID NO: 8); (Dabcyl—4-((4-(dimethylamino)phenyl)azo)benzoic acid; Edans—5-[(2-Aminoethyl) amino]naphthalene-1-sulfonyl; custom synthesis by Jerini Peptide Technologies, Berlin) in the reaction buffer. The microtiter plate was incubated for 60-120 min at the temperature of 32 C. The increase of fluorescence intensity was measured in appropriate fluorescence plate reader (e.g. TECAN Ultra) using excitation wavelength of 340 nm and emission wavelength of 490 nm. IC50 values were calculated from percentage of inhibition of rat […] activity as a function of test compound concentration.

rat MASP2 = target: T4, rat MASP2 (Rattus norvegicus, UniProt Q9JJS8); assay: Biochemical rat MASP2 assay (FRET substrate); conditions: average IC50; recombinant rat MASP2, FRET substrate
T4 construct: Ig-kappa secretion signal (N, cleaved yes); made in house; host or cells: HEK293 (ATCC No. CRL-1573)
Source text: as §4, §5
A truncated cDNA sequence of rat MASP2 encoding the fragment corresponding to the amino acids 296-685 with a C-terminal His Tag and N-terminal Ig-kappa secretion signal (SEQ ID No: 5) was subcloned into the mammalian expression vector pcDNA3.1 (Invitrogen).
as §6
4.3 Biochemical Rat MASP2 Assay.
Recombinant rat MASP2 enzyme produced in the HEK 293 cells was diluted in the reaction buffer (50 mM HEPES pH 8,0; 100 mM NaCl; 0.01% CHAPS; 0.5 mM Gluthathione) to the concentration of 20 nM and 25 μl was transferred into each single well of 384-well white microtiter plate (Greiner Bio One 781075). 1 μl of the inhibitor compound solution (dissolved in DMSO, at the corresponding concentration) or pure DMSO as a control was added to the same wells. The enzymatic reaction was initiated by addition of 25 μl of 30 μM solution of the FRET substrate Abz-IEGRTSED-(Lys)Dnp-NH2 (SEQ ID NO: 9); (ABZ—2-aminobenzoyl; DNP_2,4-dinitrophenyl; custom synthesis by Jerini Peptide Technologies, Berlin) in the reaction buffer. The microtiter plate was incubated for 60-120 min at the temperature of 32 C. The increase of fluorescence intensity was measured in appropriate fluorescence plate reader (e.g. TECAN Ultra) using excitation wavelength of 320 nm and emission wavelength of 420 nm. IC50 values were calculated from percentage of inhibition of rat […] activity as a function of test compound concentration.

Compound	IC50 (human MASP1)	IC50 (human MASP2)	IC50 (rat MASP1)	IC50 (rat MASP2)
CC[C@H](C)[C@H](NC(=O)CNC)C(=O)N[C@H]1CSSC(C)(C)[C@@H](C(=O)N[C@H](C(=O)N2CCC[C@H]2C(=O)NCCOCCOCCOCCOCCOCCOCCOCCOCCOCCC(N)=O)[C@@H](C)CC)NC(=O)[C@H]([C@@H](C)CC)NC(=O)[C@@H]2CCCN2C(=O)[C@@H]2CCCN2C(=O)[C@H](CC(C)(C)C)NC(=O)[C@H](CO)NC(=O)[C@H](CCCNC(=N)N)NC(=O)[C@H](CO)NC1=O [Example 44, ((N-Me)G)-IC+SRS-((tBu)A)-PPI-(Pen)+IP-(PEG9(31 Atoms))-NH2]	1.8 nM	–	–	–
AIC+SRS-((tBu)A)-PPI-((N-Me)C)+IPD-NH2 (HCl Salt) [Example 30]	1.53 nM	140 nM	28 nM	–
(2-Hydroxyacetyl)-IC+SRS-((tBu)A)-PPI-(Pen)+IPD-NH2 [Example 300]	18 nM	45 nM	–	–
AIC+SRSLP-(Oic)-I-(Pen)+IPN-OH [Example 418]	1.8 nM	130 nM	–	–
AIC+SRSLP-(Oic)-I-(Pen)+IPD-NH2 [Example 27]	1.5 nM	140 nM	9.81 nM	9.1 nM
N-[(5aS,11S,14S,17S,20S,23R,28R,31S,33aS)-31-[(2S)-butan-2-yl]-17-(3-carbamimidamidopropyl)-11-(2,2-dimethylpropyl)-14,20-bis(hydroxymethyl)-27,27-dimethyl-23-({N-[(morpholin-4-yl)acetyl]-L-isoleucyl}amino)-5,10,13,16,19,22,30,33-octaoxooctacosahydro-1H,5H,10H-dipyrrolo[2,1-j:2′,1′][1,2,5,8,11,14,17,20,23,26]dithiaoctaazacyclononacosine-28-carbonyl]-L-isoleucyl-L-prolyl-L-alpha-asparagine [Example 283]	15 nM	42 nM	–	–
((N-Me)G)-IC+SRSLP-(Oic)-I-(Pen)+IPD-NH2 [Example 165]	4.05 nM	150 nM	–	–
PIC+SRS-((tBu)A)-PPI-(Pen)+IPD-NH2 [Example 9]	1.14 nM	50 nM	–	–
CC[C@H](C)[C@@H]1NC(=O)[C@@H]2CCCN2C(=O)[C@@H]2CCCN2C(=O)[C@H](CC(C)(C)C)NC(=O)[C@H](CO)NC(=O)[C@H](CCCNC(=N)N)NC(=O)[C@H](CO)NC(=O)[C@@H](NC(=O)[C@@H](NC(=O)C(C)(C)CN)[C@@H](C)CC)CSSC(C)(C)[C@@H](C(=O)N[C@H](C(=O)N2CCC[C@H]2C(=O)N[C@@H](CC(=O)O)C(N)=O)[C@@H](C)CC)NC1=O [Example 166, (3-Amino-2,2-dimethylpropionic acid)-IC+SRS-((tBu)A)-PPI-(Pen)+IPD-NH2]	–	130 nM	–	–
CCC(C)[C@H](NC(=O)[C@H]1NC(=O)[C@H]([C@@H](C)CC)NC(=O)[C@@H]2C[C@@H]3CCCC[C@@H]3N2C(=O)[C@@H]2CCCN2C(=O)[C@H](CC(C)C)NC(=O)[C@H](CO)NC(=O)[C@H](CCCNC(=N)N)NC(=O)[C@H](CO)NC(=O)[C@@H](NC(=O)[C@@H](NC(=O)[C@H](C)NC)[C@@H](C)CC)CSSC1(C)C)C(=O)N1CCC[C@H]1C(=O)N[C@@H](CC(=O)NCc1ccccc1)C(N)=O (stereo in doubt) [Example 462]	–	130 nM	–	–
CC[C@H](C)[C@H](NC(=O)[C@H](C)N)C(=O)N[C@H]1CSSC(C)(C)[C@@H](C(=O)N[C@H](C(=O)N2CCC[C@H]2C(=O)N[C@@H](CC(=O)O)C(=O)O)[C@@H](C)CC)NC(=O)[C@H]([C@@H](C)CC)NC(=O)[C@@H]2C[C@@H]3CCCC[C@@H]3N2C(=O)[C@@H]2CCCN2C(=O)[C@H](CC(C)C)NC(=O)[C@H](CO)NC(=O)[C@H](CCCNC(=N)N)NC(=O)[C@H](CO)NC1=O [Example 29, AIC+SRSLP-(Oic)-I-(Pen)+IPD-OH (HCl Salt)]	–	42 nM	–	–
CC[C@H](C)[C@H](NC(=O)[C@H](C)N)C(=O)N[C@H]1CSSC(C)(C)[C@@H](C(=O)N[C@H](C(=O)N2CCC[C@H]2C(=O)N[C@@H](CC(=O)O)C(N)=O)[C@@H](C)CC)NC(=O)[C@H]([C@@H](C)CC)NC(=O)[C@@H]2C[C@@H]3CCCC[C@@H]3N2C(=O)[C@@H]2CCCN2C(=O)[C@H](CC(C)C)NC(=O)[C@H](CO)NC(=O)[C@H](CCCNC(=N)N)NC(=O)[C@H](CO)NC1=O [Example 75, AIC+SRSLP-(Oic)-I-(Pen)+IPD-NH2]	–	150 nM	–	–
AIC+SRSLP-(Oic)-I-(Pen)+IPD-OH [Example 5]	0.96 nM	97 nM	28 nM	49 nM

Counter-ions that a name gives are not always drawn.
